# Patent publication US11634391B2 (dated 2023)
# The chains behind the UniProt entries cited, without tags or fusion partners. Residues count along the entry.
# UniProt Q6P988, 20-496: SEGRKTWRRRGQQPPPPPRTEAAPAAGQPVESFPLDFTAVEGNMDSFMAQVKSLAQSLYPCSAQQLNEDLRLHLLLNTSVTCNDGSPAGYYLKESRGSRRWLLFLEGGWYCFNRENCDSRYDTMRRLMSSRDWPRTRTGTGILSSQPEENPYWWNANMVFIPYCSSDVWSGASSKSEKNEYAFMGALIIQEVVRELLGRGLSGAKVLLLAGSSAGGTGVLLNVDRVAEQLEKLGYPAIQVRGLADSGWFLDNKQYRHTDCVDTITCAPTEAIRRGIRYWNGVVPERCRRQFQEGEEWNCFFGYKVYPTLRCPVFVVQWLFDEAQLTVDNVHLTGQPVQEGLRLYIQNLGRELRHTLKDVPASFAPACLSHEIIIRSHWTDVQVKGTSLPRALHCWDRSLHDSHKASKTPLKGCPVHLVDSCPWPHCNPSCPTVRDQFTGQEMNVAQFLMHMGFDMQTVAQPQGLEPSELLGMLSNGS
# Molecular target: notum carboxyesterase enzyme (Homo sapiens (Human), UniProt Q6P988)
# Assay: Biochemical Notum Enzymatic Activity Assay (OPTS substrate, fluorescence)
# Conditions: 2 μM OPTS solution, 2.38 nM notum enzyme solution, 1 hour incubation at room temperature, fluorescence ex 485 nm / em 520 nm; n≥2
substance,measurement,value
"(1-(3,4-dichlorophenyl)-1H-1,2,3-triazol-4-yl)methanesulfonate [Compound 46]",IC50,18.5 µM
